This note sets out measurements from patent publication US11472877 (Alector, dated 2022).

Protein sequences, listed by entry. Tags and fused reporters are not part of them. Chains listed by the source or under a name are the forms on record and can include a tag or linker. Residues count along the entry.
UniProt Q9NP99, 21-234: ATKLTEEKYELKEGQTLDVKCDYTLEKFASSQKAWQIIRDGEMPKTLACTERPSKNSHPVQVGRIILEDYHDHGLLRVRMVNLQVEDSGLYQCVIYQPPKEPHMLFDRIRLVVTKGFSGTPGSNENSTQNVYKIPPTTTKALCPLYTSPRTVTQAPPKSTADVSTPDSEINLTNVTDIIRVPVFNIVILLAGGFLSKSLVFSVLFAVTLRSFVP
UniProt Q9NP99, 21-205 limits assumed, form in doubt: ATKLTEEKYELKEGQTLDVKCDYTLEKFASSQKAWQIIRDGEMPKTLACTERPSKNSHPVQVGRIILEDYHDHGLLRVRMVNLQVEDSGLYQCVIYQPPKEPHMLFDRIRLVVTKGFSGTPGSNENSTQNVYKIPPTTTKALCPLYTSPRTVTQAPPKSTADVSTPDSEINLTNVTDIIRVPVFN

T1: mouse TREM2 on BWZ cells (mouse, UniProt Q99NH8 19-227)
T1 construct: whole, on cells; also called BWZ Mouse TREM2
T1 sequence (looked up): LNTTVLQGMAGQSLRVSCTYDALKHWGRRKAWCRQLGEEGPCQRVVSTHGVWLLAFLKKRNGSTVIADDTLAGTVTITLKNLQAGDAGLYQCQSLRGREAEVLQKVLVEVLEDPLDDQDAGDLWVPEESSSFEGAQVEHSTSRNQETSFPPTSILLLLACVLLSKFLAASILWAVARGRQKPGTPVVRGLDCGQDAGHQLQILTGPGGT

T2: human TREM2 on BWZ cells (human, UniProt Q9NZC2 19-230)
T2 construct: whole, on cells; not tied to the cell line; also called BWZ Human TREM2
T2 sequence (looked up): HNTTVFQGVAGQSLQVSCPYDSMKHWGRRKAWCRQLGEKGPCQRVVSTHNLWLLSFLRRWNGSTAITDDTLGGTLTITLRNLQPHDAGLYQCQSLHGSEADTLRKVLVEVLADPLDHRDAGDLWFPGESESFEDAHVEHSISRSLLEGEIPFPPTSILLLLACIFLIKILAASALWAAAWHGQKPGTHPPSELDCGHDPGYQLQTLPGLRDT

T3: mouse TREM1 on CHO cells (mouse, UniProt Q9JKE2 21-230)
T3 construct: also called CHO-mT1
T3 sequence: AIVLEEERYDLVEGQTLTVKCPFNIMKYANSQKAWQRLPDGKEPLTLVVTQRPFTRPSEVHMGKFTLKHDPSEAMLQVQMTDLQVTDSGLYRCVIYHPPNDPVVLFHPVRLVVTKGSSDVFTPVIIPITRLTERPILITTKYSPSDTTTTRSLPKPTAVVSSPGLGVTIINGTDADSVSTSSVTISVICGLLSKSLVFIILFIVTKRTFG

B1: T1-63 (antibody, IgG1, V domains shown)
VH: QVQLQESGPGLVKPSETLSLTCAVSGYSISSGYYWGWIRQPPGKGLEWIGSIYHSGNTYYNPSLKSRVTISVDTSKNQFSLKLSSVTAADTAVYYCARELYAYSSPMFYGMDVWGRGTTVTVSS
VL: DIQMTQSPSSLSASVGDRVTITCRASQSISRYLNWYQQKPGKAPKLLIYAASSLQSGVPSRFSGSGSGTDFTLTISSLQPEDFATYYCQQLYHAPPITFGGGTKVEIK
notes: huIgG1; also called TI-63; ADI-19139
B2: T1-51 (antibody, IgG1, V domains shown)
VH: QVQLVQSGAEVKKPGSSVKVSCKASGGTFSSYAISWVRQAPGQGLEWMGSIIPIFGTANYAQKFQGRVTITADESTSTAYMELSSLRSEDTAVYYCARSGGYSSSWYGTGYDYWGQGTLVTVSS
VL: DIQMTQSPSTLSASVGDRVTITCRASQSISSWLAWYQQKPGKAPKLLIYKASSLESGVPSRFSGSGSGTEFTLTISSLQPDDFATYYCQQFQSYPFTFGGGTKVEIK
notes: huIgG1; also called TI-51; ADI-19126
B3: T1-61 (antibody, IgG1, V domains shown)
VH: QVQLQESGPGLVKPSETLSLTCAVSGYSISSGYYWGWIRQPPGKGLEWIGSIYHSGSTYYNPSLKSRVTISVDTSKNQFSLKLSSVTAADTAVYYCARHDDYLSSFDPWGQGTLVTVSS
VL: not shown
notes: huIgG1; also called TI-61; ADI-19137
B4: T1-49 (antibody, IgG1, V domains shown)
VH: QVQLVQSGAEVKKPGASVKVSCKASGYTFTSYYMHWVRQAPGQGLEWMGIINPSGGSTSYAQKFQGRVTMTRDTSTSTVYMELSSLRSEDTAVYYCAREAGSWLISTAFDIWGQGTMVTVSS
VL: not shown
notes: huIgG1; also called TI-49; ADI-19122
B5: T1-42 (antibody, IgG1, V domains shown)
VH: QVQLVESGGGVVQPGRSLRLSCAASGFTFSSYGMHWVRQAPGKGLEWVAVIWYDGSNKGYADSVKGRFTISRDNSKNTLYLQMNSLRAEDTAVYYCARELMVTSGGWLYGMDVWGQGTTVTVSS
VL: EIVMTQSPATLSVSPGERATLSCRASQSVSSNLAWYQQKPGQAPRLLIYGASTRATGIPARFSGSGSGTEFTLTISSLQSEDFAVYYCQQYNVHPPRTFGGGTKVEIK
notes: huIgG1; also called TI-42; ADI-19116
B6: T1-46 (antibody, IgG1, V domains shown)
VH: QVQLVQSGAEVKKPGASVKVSCKASGYTFTSYYMHWVRQAPGQGLEWMGVINPSGGSTSYAQKFQGRVTMTRDTSTSTVYMELSSLRSEDTAVYYCAREGSGYDESMDVWGQGTTVTVSS
VL: not shown
notes: huIgG1; also called TI-46; ADI-19124
B7: T1-6 (antibody, IgG1, V domains shown)
VH: QVQLVQSGAEVKKPGASVKVSCKASGYTFTSYYMHWVRQAPGQGLEWMGVINPSGGSTSYAQKFQGRVTMTRDTSTSTVYMELSSLRSEDTAVYYCARESGHSYVSSFDPWGQGTLVTVSS
VL: not shown
notes: huIgG1; also called TI-6; ADI-19072
B8: T1-35 (antibody, IgG1, V domains shown)
VH: QVQLVESGGGVVQPGRSLRLSCAASGFTFSSYGMHWVRQAPGKGLEWVAVISYDGSNKYYADSVKGRFTISRDNSKNTLYLQMNSLRAEDTAVYYCARPDYYSSRGVFDIWGQGTMVTVSS
VL: not shown
notes: huIgG1; also called TI-35; ADI-19109
B9: T1-36 (antibody, IgG1, V domains shown)
VH: B8 VH
VL: not shown
notes: huIgG1; also called TI-36; ADI-19110
B10: T1-55 (antibody, IgG1, V domains shown)
VH: QVQLVQSGAEVKKPGASVKVSCKASGYTFTSYYMHWVRQAPGQGLEWMGVINPSGGSTSYAQKFQGRVTMTRDTSTSTVYMELSSLRSEDTAVYYCARGADYYAGFDYWGQGTLVTVSS
VL: not shown
notes: huIgG1; also called TI-55; ADI-19130
B11: T1-7 (antibody, IgG1, V domains shown)
VH: B10 VH with V50I, A100L, D101I, Y103G, A104D, G105A
VL: not shown
notes: huIgG1; also called TI-7; ADI-19073
B12: T1-4 (antibody, IgG1, V domains shown)
VH: QVQLVQSGAEVKKPGSSVKVSCKASGGTFSSYAISWVRQAPGQGLEWMGGIIPIFGTANYAQKFQGRVTITADESTSTAYMELSSLRSEDTAVYYCARHYYYGYAYFDLWGRGTLVTVSS
VL: EIVMTQSPATLSVSPGERATLSCRASQSVSSNLAWYQQKPGQAPRLLIYGASTRATGIPARFSGSGSGTEFTLTISSLQSEDFAVYYCQQFNNHPITFGGGTKVEIK
notes: huIgG1; also called TI-4; ADI-19070
B13: T1-1 (antibody, IgG1, V domains shown)
VH: QVQLVQSGAEVKKPGSSVKVSCKASGGTFSSYAISWVRQAPGQGLEWMGGIIPIFGTANYAQKFQGRVTITADESTSTAYMELSSLRSEDTAVYYCARGQGSDHYYYGMDVWGQGTTVTVSS
VL: not shown
notes: huIgG1; also called TI-1; ADI-19067

Substitutions are numbered along the chain they refer to. Bounds are passed on as bounds.

In one experiment the target is T4, human TREM1 on cells (human, UniProt Q9NP99 21-234).
T4 construct: Some reporter cells carry a human TREM1/CD3 zeta fusion instead; also called CHO-huT1; CHO-hT1
The experiment is described as follows: FACS ligand blocking on CHO-huTREM1, 10 ug/mL IgG; competitor hPGLYRP1/PGN-BS.
Turning to B1, the “% ligand binding blocked” value was at least 50%.
Turning to B2, the “% ligand binding blocked” value was at least 85%.
The same measure, in the same setting: the value for B3 was at least 50%; that for B4 was at least 50%.
For the molecule B5, the “% ligand binding blocked” value was at least 85%.
As for B6, the “% ligand binding blocked” value is at least 50%.

For the next experiment, the target named is T1, mouse TREM2 on BWZ cells. As to the kind of experiment: FACS, BWZ mouse TREM2. (In general: In flow cytometry, cells or beads pass a laser one at a time.)
Consider B7, for which the “FOB Fold Over Background” value stood at 0.7 fold.
For B8, the “FOB Fold Over Background” value came out at 1.1 fold.
As to B9, the “FOB Fold Over Background” value was found to be 1.1 fold.
As to B10, the “FOB Fold Over Background” value was 1.1 fold.
Regarding B11, the “FOB Fold Over Background” value came to 1.1 fold.
B12: the “FOB Fold Over Background” value was determined as 1.3 fold.
With B1, the “FOB Fold Over Background” value was 1.2 fold.
In the case of B2, the “FOB Fold Over Background” value is 1.1 fold.
In the case of B3, the “FOB Fold Over Background” value stood at 1.1 fold.
As to B4, the “FOB Fold Over Background” value worked out at 0.9 fold.
Turning to B13, the “FOB Fold Over Background” value is 1.5 fold.
For the molecule B6, the “FOB Fold Over Background” value came out at 1 fold.

A further experiment concerns the target human TREM1 (human, UniProt Q9NP99 21-205, limits assumed). The experiment is described as follows: IgG, monovalent; method and antigen form not stated.
The term Kd denotes the free concentration of one partner at which half of the binding sites on the other are occupied at equilibrium, for simple one-to-one binding. Read a low Kd as tighter binding. As a reminder, the koff is a measure of how fast the partners let go of each other. A higher koff goes with a short-lived complex. A word on the kon: it is the second-order rate constant of association. High values mean fast association, low ones slow association. Molecule B7 had a Kd of 203 nM, a koff of 0.0168 s⁻¹ and a kon of 82800 M⁻¹ s⁻¹.
As for B8, the Kd stood at 15.6 nM, the koff was 0.00188 s⁻¹ and the kon is 121000 M⁻¹ s⁻¹.
For B9, in that order: 22 nM, 0.00233 s⁻¹ and 106000 M⁻¹ s⁻¹.
B10 gave a Kd of 88.6 nM, a koff of 0.00571 s⁻¹ and a kon of 64400 M⁻¹ s⁻¹.
Taken in the same sequence, the figures for B11 were 167 nM, 0.0206 s⁻¹ and 124000 M⁻¹ s⁻¹.
For B12, in that order: 111 nM, 0.0264 s⁻¹ and 239000 M⁻¹ s⁻¹.
In the case of B1, the affinity, expressed as Kd, was 29.9 nM; the koff came to 0.00661 s⁻¹; the kon is 221000 M⁻¹ s⁻¹.
Taken in the same sequence, the figures for B3 were 36.8 nM, 0.00723 s⁻¹ and 196000 M⁻¹ s⁻¹.
B4 had a Kd of 9.46 nM, a koff of 0.000848 s⁻¹ and a kon of 89600 M⁻¹ s⁻¹.
The molecule B13 displayed a Kd of 179 nM, a koff of 0.0168 s⁻¹ and a kon of 93600 M⁻¹ s⁻¹.
B5 displayed a Kd of 46.3 nM, a koff of 0.0146 s⁻¹ and a kon of 314000 M⁻¹ s⁻¹.
Taken in the same sequence, the figures for B6 were 13.7 nM, 0.00113 s⁻¹ and 82300 M⁻¹ s⁻¹.

In another experiment the target is T4, human TREM1 on cells. The experiment is described as follows: FACS, CHO human TREM1.
Turning to B7, the “FOB Fold Over Background” value stood at 409 fold.
For B8, the “FOB Fold Over Background” value is 435 fold.
As for B9, the “FOB Fold Over Background” value came to 453 fold.
Regarding B10, the “FOB Fold Over Background” value was determined as 420 fold.
Take B11: the “FOB Fold Over Background” value turned out to be 452 fold.
Same read-out and setting: the value for B12 was 509 fold; that for B1 was 502 fold.
B2: the “FOB Fold Over Background” value is 500 fold.
For the molecule B3, the “FOB Fold Over Background” value came to 433 fold.
On to B4, for which the “FOB Fold Over Background” value is 504 fold.
For the molecule B13, the “FOB Fold Over Background” value was 352 fold.
Regarding B6, the “FOB Fold Over Background” value is 491 fold.

The target in another experiment is T2, human TREM2 on BWZ cells. The experiment is described as follows: FACS, BWZ human TREM2.
As to B7, the “FOB Fold Over Background” value amounted to 0.4 fold.
In the case of B8, the “FOB Fold Over Background” value is 0.7 fold.
Take B9: the “FOB Fold Over Background” value was 0.8 fold.
With B10, the “FOB Fold Over Background” value came out at 1.1 fold.
Regarding B11, the “FOB Fold Over Background” value stood at 1.1 fold.
On to B12, for which the “FOB Fold Over Background” value amounted to 0.7 fold.
As to B1, the “FOB Fold Over Background” value stood at 1.1 fold.
Still for that read-out and setting: next, B2: 0.9 fold.
Take B3: the “FOB Fold Over Background” value is 0.9 fold.
Take B13: the “FOB Fold Over Background” value was 1.3 fold.
In the case of B6, the “FOB Fold Over Background” value was 0.9 fold.

Another experiment concerns the target T3, mouse TREM1 on CHO cells. As to the kind of experiment: FACS, CHO mouse TREM1.
As for B7, the “FOB Fold Over Background” value is 0.4 fold.
As for B8, the “FOB Fold Over Background” value is 37 fold.
On to B9, for which the “FOB Fold Over Background” value is 59.1 fold.
As to B10, the “FOB Fold Over Background” value worked out at 3.3 fold.
In the case of B11, the “FOB Fold Over Background” value was found to be 0.8 fold.
For the molecule B12, the “FOB Fold Over Background” value turned out to be 0.4 fold.
For the molecule B2, the “FOB Fold Over Background” value was found to be 4.1 fold.
Take B4: the “FOB Fold Over Background” value was found to be 16.3 fold.
Still for that read-out and setting: next, B13: 0.4 fold.

Another experiment deals with T4, human TREM1 on cells. As to the kind of experiment: FACS, human neutrophils.
Take B7: the “FOB Fold Over Background” value stood at 2.7 fold.
In the case of B8, the “FOB Fold Over Background” value came out at 2.3 fold.
Turning to B9, the “FOB Fold Over Background” value was found to be 2.8 fold.
As for B10, the “FOB Fold Over Background” value worked out at 2 fold.
As to B11, the “FOB Fold Over Background” value is 2.6 fold.
Same read-out and setting: next, B12: 2.2 fold; B1: 8.7 fold.
Same read-out and setting: next, B2: 2.4 fold; B3: 5.7 fold; B4: 4.9 fold.
B13: the “FOB Fold Over Background” value turned out to be 4.4 fold.
The same measure, in the same setting: the value for B6 was 5.9 fold.
